Tests used:
[1] = In vitro degradation assay in 0.01 M PBS buffer solution; assay type: physicochemical; settings: at 240 min
Experimental: In order to determine the degradation of the compounds in PBS buffer solution, the compounds DSR1˜6 were dissolved in 0.01 M PBS buffer solution, and were sampled every 30 min.

[2] = test system: human colon cancer SW-620; experiment: Xenografted tumor of human colon cancer SW-620 in nude mice; settings: 45 mg/kg, qw × 3w, iv
[3] = test system: human colon cancer HT-29; experiment: Xenografted tumor of human colon cancer HT-29 in nude mice; settings: 45 mg/kg, qw × 3w, iv
[4] = test system: human ovarian cancer SKOV-3; experiment: Xenografted tumor of human ovarian cancer SKOV-3 in nude mice; settings: 45 mg/kg, qw × 3w, iv
[5] = test system: human lung cancer A549; experiment: Xenografted tumor of human lung cancer A549 in nude mice; settings: 45 mg/kg, qw × 3w, iv
[6] = test system: human colon cancer HCT-116; experiment: Xenografted tumor of human colon cancer HCT-116 in nude mice; settings: 45 mg/kg, qw × 3w, iv

Substance	degradation [1]	Body weight, Beginning [2]	Body weight, End [2]	Body weight, Beginning [3]	Body weight, End [3]	Body weight, Beginning [4]	Body weight, End [4]	Body weight, Beginning [5]	Body weight, End [5]	Body weight, Beginning [6]	Body weight, End [6]
conjugate of Y shape PEG glutamic acid dipeptide valine (40K)-dasatinib [DSR-5]	20%										
conjugate of methoxy PEG dipeptide of glutamic acid and glycine (number-average molecular weight of 20,000)-irinotecan [YNR-1]		19.2 g	24.6 g	18.7 g	18.4 g	20.7 g	22.7 g	19.1 g	22.0 g	18.8 g	16.8 g

Source: patent US9700633B2, “Conjugates of water soluble polymer-amino acid oligopeptide-drug, preparation method and use thereof” (JENKEM TECHNOLOGY CO. LTD., TIANJIN BRANCH, priority 2013, dated 2017)
